Assay results taken from patent US20130184337A1, “SODIUM ASCORBATE STIMULATION OF ELASTOGENESIS” (THE HOSPITAL FOR SICK CHILDREN, priority 2012, published 2013).
“Also recorded” adds a separate entry of the source.

Tested on: normal dermal fibroblasts
Experiment: Elastic fiber deposition (immuno-staining morphometry, [3H]-valine insoluble elastin) in monolayer cultures
Format: cell-based, human
Conditions: inhibitor pre-incubation then 100 μM SA, 5% FBS; probenecid 400 μM
Experimental: Cell Cultures—Fibroblasts initially grew out from the explants of these full thickness skin biopsies and were maintained. The primary cultures of fat-derived fibroblasts obtained from Thermogenesis (Rancho Cordova, Calif.) were also tested. In all described experiments, 2-4 passages of both kinds of fibroblasts were used. In experiments aimed at assessing ECM production, cells were initially plated at a concentration of 100,000 cells/dish.
Immuno-staining—All cultures maintained in the presence and absence of indicated reagents were either fixed in cold 100% methanol at −20° C. (for detection of elastin) or in 4% paraformaldehyde at room temperature (for detection of collagen I). The multiple parallel cultures were then incubated with 10 μg/ml of polyclonal antibody to tropoelastin (Elastin Products, Owensville, Mich.), or polyclonal antibody to collagen type I (Chemicon, Temecula, Calif.). […] All of the cultures were then examined with a Nikon Eclipse E1000 microscope attached to a cooled CCD camera (QImaging, Retiga EX) and analyzed by the computer-generated morphometric analysis system (Image-Pro Plus software, Media Cybernetics, Silver Springs, Md.) as previously described.
Quantitative Assays of Insoluble Elastin—Fibroblasts were grown to confluency in 35-mm culture dishes (100,000 cells/dish). […]

In the case of COc1cc([C@@H]2c3cc4c(cc3[C@H](O)[C@H]3COC(=O)[C@@H]23)OCO4)cc(OC)c1OC [PPP, reference compound], the “elastogenic effects of 100 μM SA after pre-treatment with the inhibitor (mRNA, tropoelastin, insoluble elastin, elastic fibers)” value is reported as “did not trigger elastogenic effects; also recorded: abolish all elastogenic effects”.
